Bioassay records: PubChem, National Center for Advancing Translational Sciences (NCATS)
Most compounds without a hit are left out; they make up all but 16% or so of the library.
uPA generation = inhibitors of cell surface uPA generation; cell surface uPA generation assay, qHTS; Potency, µM (titrated, usually from 38.3 µM), for inactives: top-dose activity change, negative = inhibition, usual class: inhibitors; hit rate 0.31% among 330,000; AID 540303; active = well fitted inhibition curve with a large enough effect; inconclusive = small, poorly fitted or top-dose-only effect; inactive = no such curve, though single readings can be large or run the other way; tested in mouse RAW 264.7 cells; also: potency is read from the fitted curve at half-maximal effect; % is scaled to controls: 0 for no effect and ±100 for the full control effect; nearly all actives have a fitted effect of over 55% in size
miR-21 FLuc = raises the signal of a miR-21 reporter | HeLa miR-21 FLuc reporter, luciferase, 48 h | 340,000 tested, under 10 active | Potency, µM (titrated, usually from 38.3 µM), inactives show at the highest dose reporter change, positive = more light; active = well fitted rising curve with a large enough effect; inconclusive = small, poorly fitted or top-dose-only effect; inactive = no such curve, though single readings can be large or run the other way;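 further: % of control where 0% means no effect; miR-21 action dims this reporter so a rising signal means less miR-21 action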
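Luminescence from a firefly luciferase reporter carrying a miR-21 binding site downstream, stably expressed under a CMV promoter in HeLa cells that make miR-21 endogenously, reports miRNA modulation after 48 h compound exposure up to approximately 40uM final.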
DT40 TDP1 no CPT = qHTS for Inhibitors of human tyrosyl-DNA phosphodiesterase 1 (TDP1): qHTS in cells in absence of CPT | DT40 Tdp1-/- hTDP1 cells, no CPT, ATP luminescence, 48 h | hit rate 15% among 420,000 | Potency, µM (top dose mostly 46.2 µM), inactives show at the top dose activity change, negative = growth inhibition, most hits filed as inhibitors; also: potency is read from the fitted curve at half-maximal effect; % is scaled to controls: 0 for no effect and ±100 for the full control effect; nearly all actives have a fitted effect of over 55% in size
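Chicken DT40 Tdp1-/- cells complemented with human TDP1, screened without camptothecin (DMSO vehicle only), 400 cells/well. Compounds pin-transferred, cells incubated at 37 °C for at least 48 hr. Growth read as ATP-dependent luminescence (CellTiter-Glo, 30 min at RT).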
TDP1 inh = blocks human tyrosyl-DNA phosphodiesterase 1. hit rate 0.28% among 350,000. Potency, µM (series often up to 130 µM), for inactives: at the top dose activity change, negative = inhibition, actives largely listed as inhibitors. recombinant TDP1, AlphaScreen DNA substrate cleavage; also: potency is read from the fitted curve at half-maximal effect; % is scaled to controls: 0 for no effect and ±100 for the full control effect; nearly all actives have a fitted effect of over 40% in size
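Enzyme-compound mixtures sat 15 min at room temperature, followed by a 5 min reaction with 15 nM final substrate and 10 min with AlphaScreen beads. Recombinant human Tdp1 was used at 1 nM final.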
DT40 TDP1 CPT = DT40-hTDP1 cell growth loss with CPT; chicken DT40 Tdp1-/-;hTDP1 cells + 20 nM CPT, ATP luminescence, 48 h; AID 686979; hit rate 12% among 420,000; Potency, µM (highest dose often 46.2 µM), inactives show at the highest dose activity change, negative = growth inhibition, most hits filed as inhibitors; also: potency is read from the fitted curve at half-maximal effect; % is scaled to controls: 0 for no effect and ±100 for the full control effect; nearly all actives have a fitted effect of over 55% in size
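Cell growth measured by CellTiter-Glo luminescence after a minimum 48 h, 37 C compound exposure with 20 nM CPT in Tdp1-knockout DT40 cells stably expressing hTDP1, seeded 400/well; qHTS titration format.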
The depositor's hits bear a star; ? = inconclusive; . = not tested or not shown; ! = not confirmed by another sample. Unless noted, calls follow the shape of the dose curve; as a rule, active = well fitted curve in the direction sought with a large enough effect; inconclusive = small, poorly fitted or top-dose-only effect, or another doubt; inactive = no such curve, though single readings can be large; an effect the other way counts as inactive or inconclusive.

SMILES	uPA generation	miR-21 FLuc	DT40 TDP1 no CPT	TDP1 inh	DT40 TDP1 CPT
C=CCN1CCc2cccc3c2C1Cc1ccc(O)c(O)c1-3 (stereo unspecified)	.	.	5.2µM*	6%	13µM*
O=C(Nc1ccc2nc(-c3cccs3)c(-c3cccs3)nc2c1)N1CCCCC1	.	.	11µM*	-5%	8.9µM*
Cc1ccc(N2C(=O)CC(=O)NC2=O)c(C)c1	2%	1%	-17%	0%	10%
CNC(=O)Oc1ccc(-c2cn3cc(C)ccc3n2)cc1	-11%	?	12µM*	3%	?
CC(=O)c1cn(Cc2ccc(F)cc2)c2ccccc12	-3%	14%	18µM*	.	21µM*
C[C@]12CC[C@H]3[C@@H](CCC4=CC(=O)CC[C@@H]43)[C@@H]1CC[C@@H]2O	-13%	.	?	3%	?
C[C@]12CC[C@@H]3c4ccc(O)c(O)c4CC[C@H]3[C@@H]1CC[C@@H]2O	?	11%	13µM*	9%	26µM*
c1ccc(C2(N3CCCC3)CCCCC2)cc1	.	.	19µM*	6%	?
NC(=O)C1(N2CCCCC2)CCN(Cc2ccccc2)CC1	-2%	-4%	-14%	3%	-14%
N#CCCC#N	.	.	.	18%	.
CCOC(=O)c1ccc(NC(=O)c2c(O)[nH]c(=O)[nH]c2=O)cc1	9%	-2%	?	?	?
O=C(COC(=O)Cc1ccccc1)Nc1cc(S(=O)(=O)N2CCCCC2)ccc1Cl	2%	.	-18%	-4%	-7%
Cc1ccc(S(=O)(=O)N2CCCCC2)cc1NC(=O)Nc1ccc(Cl)cc1Cl	4%	-2%	?	-3%	2.6µM*
Cc1ccc(S(=O)(=O)N2CCCCC2)cc1NC(=O)CSc1ncnc2ccccc12	-4%	22%	18µM*	8%	26µM*
O=C(CCS(=O)(=O)c1ccc(Cl)cc1)Nc1cccc(S(=O)(=O)N2CCCCCC2)c1	-9%	.	?	.	?
N#CCCn1cc(C(=O)Nc2ccccc2Br)c(-c2ccc([N+](=O)[O-])cc2)n1	-3%	-3%	?	-5%	-23%
CC(=O)O[C@H]1C(=O)[C@@]2(C)C([C@H](OC(=O)c3ccccc3)[C@]3(O)C[C@H](OC(=O)[C@H](O)[C@@H](NC(=O)Cc4ccccc4)c4ccccc4)C(C)=C1C3(C)C)[C@]1(OC(C)=O)CO[C@@H]1C[C@@H]2O (stereo partly specified)	?	4%	0.18µM*	.	0.18µM*
CC(=O)O[C@@]12CO[C@@H]1C[C@H](O)[C@@]1(C)C(=O)[C@H](O)C3=C(C)[C@@H](OC(=O)[C@H](O)[C@@H](NC(=O)c4ccccc4)c4ccccc4)C[C@@](O)([C@@H](OC(=O)c4ccccc4)C12)C3(C)C (stereo partly specified)	0.45µM*	10%	0.21µM*	.	0.033µM*
CC(=O)O[C@H]1C(=O)[C@@]2(C)C([C@H](OC(=O)c3ccccc3)[C@]3(O)C[C@H](O)C(C)=C1C3(C)C)[C@]1(OC(C)=O)CO[C@@H]1C[C@H]2O (stereo partly specified)	?	15%	5.8µM*	.	7.3µM*
CCC(=NCC1CCCO1)c1c(O)n(-c2ccccc2C)c(=O)[nH]c1=O (stereo unspecified)	-1%	2%	-21%	4%	3%
CN1[C@H](CC(=O)c2ccccc2)CCC[C@H]1C[C@H](O)c1ccccc1	.	.	-25%	5%	-2%
C=CCN(CC=C)C(=O)CCN1CC1C (stereo unspecified)	1%	.	?	.	?
COc1ccc(-n2c(=S)[nH]c3c(sc(=S)n3-c3ccccc3)c2=O)c(OC)c1	-2%	-2%	16µM*	0%	21µM*
COc1ccc(-n2c(=O)[nH]c3ccccc3c2=O)c(OC)c1	1%	1%	-19%	6%	-21%
NC1CCCC[C@@H]1N (stereo partly specified)	.	.	.	13%	.

Compound profiles, as listed above.
Shown for CCOC(=O)c1ccc(NC(=O)c2c(O)[nH]c(=O)[nH]c2=O)cc1 = uPA generation = 9%; miR-21 FLuc = -2%; DT40 TDP1 no CPT = ?; TDP1 inh = ?; DT40 TDP1 CPT = ?
Shown for C[C@]12CC[C@H]3[C@@H](CCC4=CC(=O)CC[C@@H]43)[C@@H]1CC[C@@H]2O = uPA generation = -13%; miR-21 FLuc = .; DT40 TDP1 no CPT = ?; TDP1 inh = 3%; DT40 TDP1 CPT = ?

Of the compounds above, these contain four or more nitrogen atoms.
SMILES	uPA generation	miR-21 FLuc	DT40 TDP1 no CPT	TDP1 inh	DT40 TDP1 CPT
O=C(Nc1ccc2nc(-c3cccs3)c(-c3cccs3)nc2c1)N1CCCCC1	.	.	11µM*	-5%	8.9µM*
Cc1ccc(S(=O)(=O)N2CCCCC2)cc1NC(=O)CSc1ncnc2ccccc12	-4%	22%	18µM*	8%	26µM*
N#CCCn1cc(C(=O)Nc2ccccc2Br)c(-c2ccc([N+](=O)[O-])cc2)n1	-3%	-3%	?	-5%	-23%

Remaining list, next part:
SMILES	uPA generation	miR-21 FLuc	DT40 TDP1 no CPT	TDP1 inh	DT40 TDP1 CPT
COc1ccc(CC(=O)Nc2ccc3c(C(F)(F)F)cc(=O)oc3c2)cc1OC	1%	-15%	-16%	3%	-15%
Cc1cc(N(CCCl)CCCl)ccc1C=NNC(=O)Cc1cc(=O)oc2cc(O)ccc12	-14%	.	?	.	12µM*
Cc1cccc(N(C)C(=S)Oc2ccc3c(c2)CCC3)c1	.	.	?	.	11%
COc1cc2c(cc1OC)C(C(=O)N(C)C1CCCCC1)C1CCCCN1C2=O (stereo unspecified)	-3%	-9%	?	-1%	-3%
Cc1ccc(C)c(S(=O)(=O)c2nnn3c2nc(N2CCN(C)CC2)c2sccc23)c1	.	?	?	5%	16µM*
O=C1CSC(=S)N1Cc1cccs1	?	.	18µM*	.	?
COC(=O)C1=C(c2ccc(F)cc2OCc2ccccc2)C[C@@H]2CC[C@H]1N2C(=O)N1CCC(C)CC1	-21%	.	?	4%	?
COC(=O)C1=C(c2ccc(F)cc2OCc2ccccc2)C[C@@H]2CC[C@H]1N2C(=O)N1CCC(O)(c2ccc(Cl)cc2)CC1	?	.	23µM*	2%	?
COC(=O)C1=C(c2ccc(F)cc2OCc2ccccc2)C[C@@H]2CC[C@H]1N2C(=O)N1CCOCC1	0%	.	7.3µM*	1%	8.2µM*
CC(C#N)CCC#N (stereo unspecified)	8%	.	-7%	-1%	-1%
CC12CCC3C(CCCC4CC(=O)CCC43C)C1CCC2O (stereo unspecified)	-1%	.	?	.	-30%
O=C(O)c1[nH]c(=O)[nH]c(=O)c1F	-12%	4%	12µM*	-3%	12µM*
CCCCC1(CC)COP(=O)(OCC(Cl)(Cl)Cl)OC1 (stereo unspecified)	3%	.	-2%	.	-1%
COc1cc(CNC(=O)CCCC/C=C\C(C)C)ccc1O	.	-1%	?	3%	?
Cc1ccc(CNc2cc(C)nc3nc(-c4ccc(C)cc4)nn23)cc1	.	-39%	.	3%	.
S=P(c1ccccc1)(c1ccccc1)c1c[nH]c2ccccc12	.	.	.	0%	.
C=CCN(CC=C)Cc1c[nH]c2ccccc12	3%	-1%	?	10%	12µM*
CC(=O)Cc1c[nH]c2ccccc12	.	-1%	?	4%	?
CN(C)Cc1c[nH]c2ccccc12	?	.	13µM*!	4%	12µM*
C[C@H]1COC2=C1C(=O)C(=O)c1c2ccc2c1CCCC2(C)C	-21%	-3%	5.2µM*	21%	5.2µM*
CC1COC2=C1C(=O)C(=O)c1c2ccc2c1CCCC2(C)C (stereo unspecified)	.	.	13µM*	20%	?
O[N+]1=CC=CCC1=S.On1ccccc1=S.[Zn]	.	.	0.15µM*	.	0.033µM*
